{"sequences": {"note": "Amino acid sequences for entries named in this document (tags omitted).", "UniProt P50406, whole entry": "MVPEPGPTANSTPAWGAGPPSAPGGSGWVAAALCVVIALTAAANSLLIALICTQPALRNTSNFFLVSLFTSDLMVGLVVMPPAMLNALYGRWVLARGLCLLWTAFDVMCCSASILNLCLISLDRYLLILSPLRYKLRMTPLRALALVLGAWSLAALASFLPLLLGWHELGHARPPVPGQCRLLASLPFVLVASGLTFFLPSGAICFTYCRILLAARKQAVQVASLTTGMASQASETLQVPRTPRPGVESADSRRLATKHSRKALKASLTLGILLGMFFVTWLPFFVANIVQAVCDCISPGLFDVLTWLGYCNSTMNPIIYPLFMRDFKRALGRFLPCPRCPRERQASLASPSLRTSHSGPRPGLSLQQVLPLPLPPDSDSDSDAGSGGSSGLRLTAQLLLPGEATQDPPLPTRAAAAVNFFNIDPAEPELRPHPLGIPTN"}, "source": "patent US20100035866A1", "about": "“NOVEL SUBSTITUTED-1, 1-DIOXO-BENZO[1,2,4]THIADIAZIN-3ONES, PREPARATION METHOD THEREOF, AND PHARMACEUTICAL COMPOSITION CONTAINING THE SAME” (KOREA RESEARCH INSTITUTE OF CHEMICAL TECHNOLOGY, priority 2006, published 2010)", "molecular_target": "5-HT6 receptors (Homo sapiens, UniProt P50406)", "assay": "Adenylyl cyclase activity (cAMP accumulation) in HeLa cells transfected with human 5-HT6 receptor", "conditions": "FIG. 1"}
{"smiles": "CSc1ccc2c(c1)C(N1CCN(C)CC1)Cc1ccccc1S2", "note": "(stereo not shown) [methiothepin, reference compound]", "values": [{"measurement": "5-HT-induced increase in cAMP level inhibited (in words)", "value": "inhibited"}]}
